Experimental data reported in patent publication US20250333410A1, “COMPOUND FOR INHIBITING OR DEGRADING BCL6 AND USE THEREOF IN PHARMACEUTICS” (XIZANG HAISCO PHARMACEUTICAL CO., LTD., priority 2022, published 2025).

Sequences of proteins named here, by UniProt entry; tags and fusion partners are left off.
UniProt Q12809, whole entry: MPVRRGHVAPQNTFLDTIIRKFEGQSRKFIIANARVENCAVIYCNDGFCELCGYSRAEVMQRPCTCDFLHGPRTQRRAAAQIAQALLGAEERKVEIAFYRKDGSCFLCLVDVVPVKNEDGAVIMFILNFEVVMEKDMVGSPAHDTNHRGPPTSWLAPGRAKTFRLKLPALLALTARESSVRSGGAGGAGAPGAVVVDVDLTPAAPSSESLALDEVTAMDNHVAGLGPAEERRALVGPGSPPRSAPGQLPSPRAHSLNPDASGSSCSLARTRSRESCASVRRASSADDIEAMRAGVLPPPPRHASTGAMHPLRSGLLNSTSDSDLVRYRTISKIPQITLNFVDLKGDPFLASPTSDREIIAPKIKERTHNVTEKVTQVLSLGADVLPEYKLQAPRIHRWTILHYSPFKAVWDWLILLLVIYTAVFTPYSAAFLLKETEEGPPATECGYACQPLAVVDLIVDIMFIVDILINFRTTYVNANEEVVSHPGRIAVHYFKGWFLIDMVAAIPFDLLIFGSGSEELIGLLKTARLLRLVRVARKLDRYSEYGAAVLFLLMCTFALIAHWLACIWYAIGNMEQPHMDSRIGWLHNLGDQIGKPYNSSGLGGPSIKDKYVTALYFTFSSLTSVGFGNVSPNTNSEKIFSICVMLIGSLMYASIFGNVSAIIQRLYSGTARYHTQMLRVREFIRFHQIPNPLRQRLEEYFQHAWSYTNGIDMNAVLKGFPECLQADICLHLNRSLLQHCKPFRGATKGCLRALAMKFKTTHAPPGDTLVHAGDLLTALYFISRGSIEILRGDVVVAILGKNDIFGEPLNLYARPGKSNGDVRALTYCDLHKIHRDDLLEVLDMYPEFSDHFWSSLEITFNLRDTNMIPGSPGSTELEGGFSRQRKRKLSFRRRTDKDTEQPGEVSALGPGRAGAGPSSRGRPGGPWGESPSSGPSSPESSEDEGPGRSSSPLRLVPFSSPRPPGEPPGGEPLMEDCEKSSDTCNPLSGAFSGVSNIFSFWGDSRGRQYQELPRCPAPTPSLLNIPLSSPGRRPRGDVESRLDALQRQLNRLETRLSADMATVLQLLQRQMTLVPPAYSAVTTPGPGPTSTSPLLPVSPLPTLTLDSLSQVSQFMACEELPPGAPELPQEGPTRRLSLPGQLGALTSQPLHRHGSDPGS

Columns and labels:
Bcl6 [1] = biological target: T1, Bcl6 (Homo sapiens (Human), UniProt P41182); assay: Bcl-6 protein degradation experiment in Farage cells; type: cell-based
[2] = biological target: hERG potassium ion channel (Homo sapiens (Human), UniProt Q12809); assay: Test for hERG potassium ion channel (manual patch-clamp, CHO cells); details: read-out: IC50 of inhibitory effects on hERG potassium channel current; CHO cells stably expressing hERG, whole cell patch-clamp; tested form: TFA
[3] = Pharmacokinetic test in mice; details: i.g. 5 mg/kg, tested form: TFA; for AUC0-t: mice plasma
Bcl6 [4] = biological target: T1, Bcl6; assay: Bcl-6 protein degradation experiment in OCI-LY1 cells; details: read-out: Bcl6 DC50, 24 hours, tested form: TFA
[5] = Pharmacokinetic test in rats; details: rats plasma, i.g. 5 mg/kg; tested form: TFA
[6] = read-out: Bcl6 DC50, 24 hours, tested form: TFA

Row | Compound | DC50 (Bcl6 [1]; [6]) | further results
1 | CNC(=O)COc1cc2cc(Nc3nc(N4C[C@H]5CC(N6CCN7c8cc(F)c(C9CCC(=O)NC9=O)cc8CC[C@@H]7C6)C[C@H]5C4)ncc3Cl)ccc2n(C(C)C)c1=O (stereo partly shown) | < 10 nM | –
2 | CNC(=O)COc1cc2cc(Nc3nc(N4CCC(CN5CCN6c7cc(F)c(C8CCC(=O)NC8=O)cc7CC[C@H]6C5)CC4)ncc3Cl)ccc2n(C)c1=O (stereo partly shown) | < 10 nM | IC50 [2]: > 30 µM; AUC0-t [3]: >1000 ng·h/mL
3 | CNC(=O)COc1cc2cc(Nc3nc(N4CCC(CN5CCN6c7cc(F)c(C8CCC(=O)NC8=O)cc7CC[C@@H]6C5)CC4)ncc3Cl)ccc2n(C)c1=O (stereo partly shown) | < 10 nM | AUC0-t [3]: >1000 ng·h/mL
4 | CNC(=O)COc1cc2cc(Nc3nc(N4CCC(CN5CCN6c7ccc(C8CCC(=O)NC8=O)cc7NC(=O)[C@H]6C5)CC4)ncc3Cl)ccc2n(C)c1=O (stereo partly shown) | – | DC50 (Bcl6 [4]): < 100 nM
5 | CNC(=O)COc1cc2cc(Nc3nc(N4CCC(O[C@H]5C[C@H](N6CCN7c8cc(F)c(C9CCC(=O)NC9=O)cc8CC[C@H]7C6)C5)C(F)(F)C4)ncc3Cl)ccc2n(C(C)C)c1=O (single isomer, unassigned) | < 10 nM | –
6 | CNC(=O)COc1cc2cc(Nc3nc(N4CCN(CC5CCN(c6ccc(C7CCC(=O)NC7=O)cc6)CC5)CC4)ncc3Cl)ccc2n(CC2CC2)c1=O (stereo not shown) | < 10 nM | –
7 | CNC(=O)COc1cc2cc(Nc3nc(N4CC[C@@H](O[C@H]5C[C@H](N6CCN7c8cc(F)c(C9CCC(=O)NC9=O)cc8CC[C@@H]7C6)C5)[C@@H](F)C4)ncc3Cl)ccc2n(C(C)C)c1=O (stereo partly shown) | < 10 nM | –
8 | CNC(=O)COc1cc2cc(Nc3nc(N4CC[C@@H](O[C@H]5C[C@H](N6CCN7c8cc(F)c(C9CCC(=O)NC9=O)cc8CC[C@H]7C6)C5)[C@@H](F)C4)ncc3Cl)ccc2n(C(C)C)c1=O (stereo partly shown) | < 10 nM | –
9 | [2H]C([2H])([2H])NC(=O)COc1cc2cc(Nc3nc(N4CCC(CN5CCN6c7cc(F)c(C8CCC(=O)NC8=O)cc7CC[C@@H]6C5)CC4)ncc3Cl)ccc2n(C(C)C)c1=O (stereo partly shown) | < 10 nM | AUC0-t [5]: >1000 ng·h/mL
10 | CCn1c(=O)c(OCC(=O)NC)cc2cc(Nc3nc(N4CCC(CN5CCn6c(cc7cc(C8CCC(=O)NC8=O)c(F)cc76)C5)CC4)ncc3Cl)ccc21 (stereo not shown) | < 10 nM | IC50 [2]: > 40 µM
11 | CNC(=O)COc1cc2cc(Nc3nc(N4CCN(CC5CCN(c6ccc(C7CCC(=O)NC7=O)cc6)CC5)CC4)ncc3Cl)ccc2n(C2CC2)c1=O (stereo not shown) | < 10 nM | –
12 | CNC(=O)COc1cc2cc(Nc3nc(N4CCC(CN5CCN6c7ccc(N8CCC(=O)NC8=O)cc7CCC6C5)CC4)ncc3Cl)ccc2n(C)c1=O (stereo not shown) | < 10 nM | –
13 | CNC(=O)COc1cc2cc(Nc3nc(N4CCN(CC5CCN(c6cc(F)c(C7CCC(=O)NC7=O)c(F)c6)CC5)CC4)ncc3Cl)ccc2n(C)c1=O (stereo not shown) | < 10 nM | AUC0-t [3]: >1000 ng·h/mL; F ([3]; mice): >50%
14 | CNC(=O)COc1cc2cc(Nc3nc(N4CCC(CN5CCN6c7ccc(C8CCC(=O)NC8=O)cc7N(C)C(=O)[C@@H]6C5)CC4)ncc3Cl)ccc2n(C)c1=O (stereo partly shown) | < 10 nM | –
15 | CNC(=O)COc1cc2cc(Nc3nc(N4CCC(CN5CCN6c7cc(F)c(C8CCC(=O)NC8=O)cc7CC[C@H]6C5)CC4)ncc3Cl)ccc2n(C(C)C)c1=O (single isomer, unassigned) | < 10 nM | DC50 (Bcl6 [1]; read-out: Bcl6 DC50, 24 hours): < 10 nM
16 | C#CCn1c(=O)c(OCC(=O)NC)cc2cc(Nc3nc(N4CCN(CC5CCN(c6ccc(C7CCC(=O)NC7=O)cc6)CC5)CC4)ncc3Cl)ccc21 (stereo not shown) | < 10 nM | –
17 | CNC(=O)COc1cc2cc(Nc3nc(N4CCC(CN5CCN6c7ccc(C8CCC(=O)NC8=O)cc7CCC6C5)CC4)ncc3Cl)ccc2n(C)c1=O (single isomer, unassigned) | < 10 nM | –
18 | CNC(=O)COc1cc2cc(Nc3nc(N4C[C@H]5CC(N6CCN7c8cc(F)c(C9CCC(=O)NC9=O)cc8CC[C@H]7C6)C[C@H]5C4)ncc3Cl)ccc2n(C(C)C)c1=O (stereo partly shown) | < 10 nM | –
19 | CC#CCn1c(=O)c(OCC(=O)NC)cc2cc(Nc3nc(N4CCN(CC5CCN(c6ccc(C7CCC(=O)NC7=O)cc6)CC5)CC4)ncc3Cl)ccc21 (stereo not shown) | < 10 nM | –
20 | CNC(=O)COc1cc2cc(Nc3nc(N4CCC(CN5CCN6c7ccc(C8CCC(=O)NC8=O)cc7NC(=O)[C@@H]6C5)CC4)ncc3Cl)ccc2n(C)c1=O (stereo partly shown) | < 10 nM | –
